## Yeast mating assay B: variants of the scFv Ab-14

The measurements come from Li et al. 2023 (doi:10.1038/s41467-023-39022-2) through the FLAb antibody collection.

Binding partner: SARS-CoV-2 spike HR2 peptide, sequence PDVDLGDISGINAS.

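The starting antibody came from a phage panning campaign against this peptide. These sequences belong to a second round, designed from the earlier measurements on random variants of the parent. Their group label is 14H_En_Gibbs (En: ensemble of fine-tuned language models; Gibbs: Gibbs sampling). AlphaSeq pools MATa yeast showing the antibodies with MATalpha yeast showing the peptide. After mating in shaken culture at 30 °C for 16 h, diploids were selected and their barcode pairs sequenced. Each replicate has its own calibration line, from reference interactions of the BCL2 family. The assay was run in six technical replicates.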

Parent scFv Ab-14: VH joined to VL by a (GGGGS)3 linker. Changes lie in the heavy chain CDRs alone.
VH: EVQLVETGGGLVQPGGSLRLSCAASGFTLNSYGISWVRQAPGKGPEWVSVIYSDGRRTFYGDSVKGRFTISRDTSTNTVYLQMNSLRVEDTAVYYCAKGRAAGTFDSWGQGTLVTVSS
VL: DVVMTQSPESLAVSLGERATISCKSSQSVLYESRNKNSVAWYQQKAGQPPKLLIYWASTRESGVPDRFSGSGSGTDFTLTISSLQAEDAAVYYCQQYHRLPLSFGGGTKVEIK

Each variant is given by its three heavy chain CDRs, as the data file delimits them; those of the parent are GFTLNSYGIS, VIYSDGRRTFYGDSVK, GRAAGTFDS.
Values are log10 of the apparent Kd in nM; lower means stronger binding.
Averages over replicates are reported, and they cover detected replicates only.
Where no diploid with the target was found in that replicate, the entry reads "ND": below detection, most likely a poor binder, though not proof of it.
Empty control strains, which show no peptide, gave a signal in 1% of pairings with all heavy chain designs; the median was 2.08 and 95% of these signals were weaker than 0.84. No background was subtracted. For each scFv, signals with the empty controls are counted beside the result, with their mean in brackets.

{"CDR-H1": "GFNLDEYGIS", "CDR-H2": "VIYADGVRKAYADKVK", "CDR-H3": "GKVHWFHLQ", "log10 Kd (nM) by replicate": "ND ND ND ND ND ND", "mean log10 Kd (nM)": "ND", "empty controls": "0/18"}
{"CDR-H1": "GFDIEEYGIS", "CDR-H2": "VIYADGIRQAYKDSVK", "CDR-H3": "GMNVGRFSV", "log10 Kd (nM) by replicate": "ND ND ND ND ND ND", "mean log10 Kd (nM)": "ND", "empty controls": "0/18"}
{"CDR-H1": "GESLDEFGIS", "CDR-H2": "VIYADGMRTAYTDKVK", "CDR-H3": "GLVAATLVD", "log10 Kd (nM) by replicate": "ND ND ND ND ND ND", "mean log10 Kd (nM)": "ND", "empty controls": "0/18"}
{"CDR-H1": "GFVIDEYGIS", "CDR-H2": "VIYADGSRQVYQDKVK", "CDR-H3": "GKGTGNFTT", "log10 Kd (nM) by replicate": "ND ND ND ND ND ND", "mean log10 Kd (nM)": "ND", "empty controls": "1/18 (1.66)"}
{"CDR-H1": "GFDLEEYGIS", "CDR-H2": "VIYADGERVNYTEAVK", "CDR-H3": "GQFSGVDMD", "log10 Kd (nM) by replicate": "-0.18 0.53 -0.89 -0.30 -0.70 -0.52", "mean log10 Kd (nM)": "-0.34", "empty controls": "0/18"}
{"CDR-H1": "GFDIEEYGIS", "CDR-H2": "VIYADGVRTAYSQNFK", "CDR-H3": "VGNTFDLDI", "log10 Kd (nM) by replicate": "1.60 ND ND ND ND ND", "mean log10 Kd (nM)": "1.60", "empty controls": "1/18 (2.94)"}
{"CDR-H1": "GFDVNEQGIS", "CDR-H2": "VIYADGTRTAYANTVK", "CDR-H3": "GKVVGVFGD", "log10 Kd (nM) by replicate": "ND ND ND ND ND ND", "mean log10 Kd (nM)": "ND", "empty controls": "0/18"}
{"CDR-H1": "GFGLQEYGIS", "CDR-H2": "VIYADGLRSMYANSVK", "CDR-H3": "GNSDGMVLV", "log10 Kd (nM) by replicate": "ND ND ND ND ND ND", "mean log10 Kd (nM)": "ND", "empty controls": "0/18"}
{"CDR-H1": "GFQLDEYGIS", "CDR-H2": "VIYADGLRQYYAQNVK", "CDR-H3": "GYNSFDLND", "log10 Kd (nM) by replicate": "ND ND ND ND ND ND", "mean log10 Kd (nM)": "ND", "empty controls": "0/18"}
{"CDR-H1": "GDSLDEYGIS", "CDR-H2": "VIYADGQRVQYVDPVK", "CDR-H3": "GEQAGNVDV", "log10 Kd (nM) by replicate": "ND ND ND ND ND ND", "mean log10 Kd (nM)": "ND", "empty controls": "0/18"}
{"CDR-H1": "GFSLDEFGIS", "CDR-H2": "VIYADGMRSFYTDNVK", "CDR-H3": "GINGNVLWI", "log10 Kd (nM) by replicate": "ND ND ND ND ND ND", "mean log10 Kd (nM)": "ND", "empty controls": "0/18"}
{"CDR-H1": "GDGLQEYGIS", "CDR-H2": "VIYADGFRTSYANDVK", "CDR-H3": "GTAAGIFMV", "log10 Kd (nM) by replicate": "ND ND ND ND ND ND", "mean log10 Kd (nM)": "ND", "empty controls": "0/18"}
{"CDR-H1": "GFDVDEYGIS", "CDR-H2": "VIYADGKRSMYTDKVK", "CDR-H3": "GVDADTMMV", "log10 Kd (nM) by replicate": "ND 3.55 ND ND 2.85 ND", "mean log10 Kd (nM)": "3.20", "empty controls": "1/18 (1.46)"}
{"CDR-H1": "GFDLDEYGIS", "CDR-H2": "VIYADGSRVAILESVK", "CDR-H3": "GKIAGTFDT", "log10 Kd (nM) by replicate": "-0.14 0.33 -0.23 0.36 0.20 0.83", "mean log10 Kd (nM)": "0.23", "empty controls": "0/18"}
{"CDR-H1": "GKSLDEYGIS", "CDR-H2": "VIYADGTRAFYANSVK", "CDR-H3": "GLISMVFGK", "log10 Kd (nM) by replicate": "ND ND ND ND ND ND", "mean log10 Kd (nM)": "ND", "empty controls": "0/18"}
{"CDR-H1": "GNDLQEYGIS", "CDR-H2": "VIYADGMRNQYVQSVK", "CDR-H3": "GMNAGVFDY", "log10 Kd (nM) by replicate": "ND ND ND ND ND ND", "mean log10 Kd (nM)": "ND", "empty controls": "0/18"}
{"CDR-H1": "GFDIEDYGIS", "CDR-H2": "VIYADGKRSSYSNSFK", "CDR-H3": "GLMSGNMMV", "log10 Kd (nM) by replicate": "ND ND ND ND ND ND", "mean log10 Kd (nM)": "ND", "empty controls": "0/18"}
{"CDR-H1": "GFKLDEYGIS", "CDR-H2": "VIYADGCRTAYVDSVK", "CDR-H3": "GGTTFSKFV", "log10 Kd (nM) by replicate": "ND ND ND ND ND ND", "mean log10 Kd (nM)": "ND", "empty controls": "0/18"}
{"CDR-H1": "GFQLDEYGIS", "CDR-H2": "VIYADGLRVYYAQNVK", "CDR-H3": "GYNSFDIND", "log10 Kd (nM) by replicate": "ND ND ND ND ND ND", "mean log10 Kd (nM)": "ND", "empty controls": "0/18"}
{"CDR-H1": "GFELNEYGIS", "CDR-H2": "VIYADGMKQAYRDDVK", "CDR-H3": "GDIAGNFMQ", "log10 Kd (nM) by replicate": "ND ND ND ND ND ND", "mean log10 Kd (nM)": "ND", "empty controls": "0/18"}
{"CDR-H1": "GFDLDEQGIS", "CDR-H2": "VIYADGQRKAYADQVK", "CDR-H3": "GMQGVIART", "log10 Kd (nM) by replicate": "ND ND ND ND ND ND", "mean log10 Kd (nM)": "ND", "empty controls": "0/18"}
{"CDR-H1": "GFSLDEYGIS", "CDR-H2": "VIYADGVRARYSDQVK", "CDR-H3": "GVKVGNVIM", "log10 Kd (nM) by replicate": "ND ND 2.98 ND ND ND", "mean log10 Kd (nM)": "2.98", "empty controls": "2/18 (3.05)"}
{"CDR-H1": "GFNLNEYGIS", "CDR-H2": "VIYADGMRASYRNDVK", "CDR-H3": "GNISGDFML", "log10 Kd (nM) by replicate": "1.97 2.61 2.11 0.99 1.51 ND", "mean log10 Kd (nM)": "1.84", "empty controls": "1/18 (1.59)"}
{"CDR-H1": "GFDLEEYGIS", "CDR-H2": "VIYADGRRVAYADSVK", "CDR-H3": "GIDVYGKVM", "log10 Kd (nM) by replicate": "ND ND ND ND 2.44 ND", "mean log10 Kd (nM)": "2.44", "empty controls": "1/18 (3.40)"}
{"CDR-H1": "GEQLDEYGIS", "CDR-H2": "VIYADGRKQYYANSVK", "CDR-H3": "GDSADVFDL", "log10 Kd (nM) by replicate": "ND ND ND ND ND ND", "mean log10 Kd (nM)": "ND", "empty controls": "0/18"}
{"CDR-H1": "GFDLSEYGIS", "CDR-H2": "VIYADGQRANYVSNVK", "CDR-H3": "GEQAGGFVL", "log10 Kd (nM) by replicate": "ND ND ND ND ND ND", "mean log10 Kd (nM)": "ND", "empty controls": "0/18"}
{"CDR-H1": "GKDLEEYGIS", "CDR-H2": "VIYADGRRTSYIENVK", "CDR-H3": "DGLNDGTFV", "log10 Kd (nM) by replicate": "ND ND ND ND ND ND", "mean log10 Kd (nM)": "ND", "empty controls": "0/18"}
{"CDR-H1": "GFNLDEYGIS", "CDR-H2": "VIYADGHRMFVSNSVK", "CDR-H3": "GENADFLFV", "log10 Kd (nM) by replicate": "ND ND ND ND ND ND", "mean log10 Kd (nM)": "ND", "empty controls": "0/18"}
{"CDR-H1": "GFDLEELGIS", "CDR-H2": "VIYADGMRTQYIDKVK", "CDR-H3": "GIAGDSFLV", "log10 Kd (nM) by replicate": "ND ND ND ND ND ND", "mean log10 Kd (nM)": "ND", "empty controls": "1/18 (1.75)"}
{"CDR-H1": "GDVLDEYGIS", "CDR-H2": "VIYADGRRTAYTQDVK", "CDR-H3": "GDKAGDLSV", "log10 Kd (nM) by replicate": "ND ND 2.40 ND ND ND", "mean log10 Kd (nM)": "2.40", "empty controls": "0/18"}

The closing 2 entries, repeated:

{"CDR-H1": "GFDLEELGIS", "CDR-H2": "VIYADGMRTQYIDKVK", "CDR-H3": "GIAGDSFLV", "log10 Kd (nM) by replicate": "ND ND ND ND ND ND", "mean log10 Kd (nM)": "ND", "empty controls": "1/18 (1.75)"}
{"CDR-H1": "GDVLDEYGIS", "CDR-H2": "VIYADGRRTAYTQDVK", "CDR-H3": "GDKAGDLSV", "log10 Kd (nM) by replicate": "ND ND 2.40 ND ND ND", "mean log10 Kd (nM)": "2.40", "empty controls": "0/18"}

Values of this round are not directly comparable with the first-round values of the same sequences.
The authors averaged sequences with at least three values out of six and counted those with two or fewer as poor binders.
Of ten entries with the parent sequence, four were seen in most replicates (averages 0.34 to 2.37), three in one and three in none, so single entries are noisy.